Data taken from US9612237B2, “Ritalinic acid immunoassay” (Randox Laboratories Limited, priority 2013, dated 2017).

Tested on: antisera generated in response to immunogen of Example 11
Test: Competitive chemiluminescent biochip immunoassay, antisera raised against immunogen of Example 11, conjugate of Example 12
Format: binding, sheep

## CN1CC[C@]23c4c5ccc(O)c4O[C@H]2C(=O)CC[C@H]3[C@H]1C5 [hydromorphone]
  Concentration exhibiting no cross-reactivity: 10 µg/mL
